Results published in article PMC9552169, “Mutations Increasing Cofactor Affinity, Improve Stability and Activity of a Baeyer–Villiger Monooxygenase” (ACS Catalysis, 2022).

Test system: O=C1CCCCC1
Test: purified protein
Settings: cyclohexanone taken from the standard assay (Figure 2: 100 μM NADPH, 50 mM TrisHCl pH 8.5)
[1] = variant L3-4 (b21 also lists a silent 'Y452Y'), table prints only 'substrate'
[2] = variant L1-1, table prints only 'substrate'

Question: “CHMOAcineto (CHMOwt) (Acinetobacter johnsonii; G14A/M400I/N336E/N477E/Q451K/Q473R/T453A/V454E)” was tested. Which Km [1] did it give?
Answer: Its Km is 5.0 ± 1.5 µM.

Question: And the kcat [1]?
Answer: Its kcat is 16.3 s⁻¹.

Question: And the kcat/Km [1]?
Answer: Its kcat/Km is 3.19e+06 M⁻¹ s⁻¹.

Question: What does the source list for “CHMOAcineto (CHMOwt) (Acinetobacter johnsonii; G14A)”?
Answer: Km [2]: 3.5 ± 0.3 µM; kcat [2]: 24.2 s⁻¹; kcat/Km [2]: 7.06e+06 M⁻¹ s⁻¹
